The results in this text go back to patent US7605155B2 (dated 2009).

The assay deals with CDK2 (either cyclin A or E-dependent) (Homo sapiens, UniProt P24941). The assay can be described thus: biochemical.
`Cn1cc(-c2cnn3c(N)c(Br)c(CCN)nc23)cn1`: it took 920 nM to reach half-maximal inhibition (IC50).

As to `Cn1cc(-c2cnn3c(N)c(Br)c(CC4CCCNC4)nc23)cn1` (stereo not drawn), the midpoint of inhibition, the IC50, lay at 2400 nM. This IC50 is about 2.6-fold higher than that of the molecule before.

On to `Cn1cc(-c2cnn3c(N)c(Br)c(CC4CCNC4)nc23)cn1` (stereo not drawn), for which half-maximal inhibition (IC50) was put at 840 nM.
